By UniProt entry, the sequences of proteins in these tests, tags left out.
UniProt P01112, whole entry: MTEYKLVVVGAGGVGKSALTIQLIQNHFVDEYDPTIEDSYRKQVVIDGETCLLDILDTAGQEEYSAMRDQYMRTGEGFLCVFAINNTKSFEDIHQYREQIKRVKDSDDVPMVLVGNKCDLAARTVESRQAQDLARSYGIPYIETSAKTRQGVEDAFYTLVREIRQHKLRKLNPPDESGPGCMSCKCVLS

In EP4603105A1, “PHARMACEUTICAL COMPOSITION CONTAINING CYCLIC COMPOUND HAVING SELECTIVE KRAS INHIBITORY EFFECT AGAINST HRAS AND NRAS” (CHUGAI SEIYAKU KABUSHIKI KAISHA, priority 2022, dated 2024):

Biological target: HRAS wild-type protein (Homo sapiens, UniProt P01112)
Experiment: Binding to HRAS by surface plasmon resonance (SPR), KD and KD ratio to KRAS
[1] = ratio of KD for HRAS wild-type protein to KD for KRAS
[2] = ratio of KD with respect to HRAS wild-type protein to KD with respect to KRAS

Row | Compound | HRAS /KRAS [1] | HRAS /KRAS [2]
1 | CCO[C@H](C)[C@@H]1NC(=O)[C@H](CC(C)C)N(C)C(=O)C[C@@H](C(=O)N(C)CC)N(C)C(=O)[C@H](C2CCCC2)N(C)C(=O)C2(CC(C)(C)C2)NC(=O)[C@@H]2C[C@H](C)CN2C(=O)[C@H](CCc2ccc(C(F)(F)F)c(OC)c2)NC(=O)CN(C)C(=O)[C@H](Cc2ccc(C)cc2)N2CC/C=C\C[C@@H](C2=O)N(C)C(=O)[C@@H]2CCCN2C1=O | A (a compound having 10 or more and less than 20 is denoted as A) | 
2 | CCO[C@@H]1C[C@H]2C(=O)NC3(CCC3)C(=O)N(C)[C@@H](C3CCCC3)C(=O)N(C)[C@H](C(=O)N3CCCC3)CC(=O)N(C)[C@@H](CC3CCCC3)C(=O)N[C@@H]([C@@H](C)CC)C(=O)N(C)CC(=O)N(C)[C@H]3C/C=C\CCN(C3=O)[C@@H](Cc3ccc(C)cc3)C(=O)N(C)CC(=O)N[C@@H](CCc3cc(F)c(C(F)(F)F)c(F)c3)C(=O)N2C1 |  | A (a compound having 10 or more and less than 20 is denoted as A)
3 | CCOCC1C(=O)NC(C(C)CC)C(=O)N(C2CC2)CC(=O)N(C)C2CC=CCCN(C2=O)C(CC2CCCCC2)C(=O)N(C)CC(=O)NC(CCc2ccc(C(F)(F)F)c(OC)c2)C(=O)N2CC(C)CC2C(=O)N(C)C2(CCC2)C(=O)N(C)C(C2CCCC2)C(=O)N(C)C(C(=O)N(C)C)CC(=O)N1C (stereo not shown) | A (a compound having 10 or more and less than 20 is denoted as A) | 
4 | CCOC[C@H]1C(=O)N[C@@H]([C@@H](C)OCC)C(=O)N2CCC[C@H]2C(=O)N(C)[C@H]2C/C=C\CCN(C2=O)[C@@H](Cc2ccc(C)cc2)C(=O)N(C)CC(=O)N[C@@H](CCc2ccc(C(F)(F)F)c(OC)c2)C(=O)N2C[C@@H](C)C[C@H]2C(=O)NC2(CC(C)(C)C2)C(=O)N(C)[C@@H](C2CCCC2)C(=O)N(C)[C@H](C(=O)N(C)CC)CC(=O)N1C | A (a compound having 10 or more and less than 20 is denoted as A) | 
5 | CCO[C@@H]1C[C@H]2C(=O)NC3(CC(F)(F)C3)C(=O)N(C)[C@@H](C3CCCC3)C(=O)N(C)[C@H](C(=O)N(C)C)CC(=O)N(C)[C@@H](CC)C(=O)N[C@@H]([C@@H](C)CC)C(=O)N(C)CC(=O)N(C)[C@H]3C/C=C\CCN(C3=O)[C@@H](Cc3ccc(C(F)(F)F)cc3)C(=O)N(C)CC(=O)N[C@@H](CCc3cc(F)c(C(F)(F)F)c(F)c3)C(=O)N2C1 |  | A (a compound having 10 or more and less than 20 is denoted as A)
6 | CCOC[C@H]1C(=O)N[C@@H]([C@@H](C)CC)C(=O)N2CCC[C@H]2C(=O)N(C)[C@H]2C/C=C\CCN(C2=O)[C@@H](CC2CCC(F)(F)CC2)C(=O)N(C)CC(=O)N[C@@H](CCc2ccc(C(F)(F)F)c(OC)c2)C(=O)N2C[C@H](OCC)C[C@H]2C(=O)N(C)C2(CCC2)C(=O)N(C)[C@@H](C(CC)CC)C(=O)N(C)[C@H](C(=O)N(C)C)CC(=O)N1C | A (a compound having 10 or more and less than 20 is denoted as A) | 
7 | CCO[C@@H]1C[C@H]2C(=O)NC3(CCC3)C(=O)N(C)[C@@H](C(CC)CC)C(=O)N(C)[C@H](C(=O)N(C)C)CC(=O)N(C)[C@@H](CC(C)C)C(=O)N[C@@H]([C@@H](C)CC)C(=O)N(C)CC(=O)N(C)[C@H]3C/C=C\CCN(C3=O)[C@@H](CC3CCCCC3)C(=O)N(C)CC(=O)N[C@@H](CCc3cc(F)c(C(F)(F)F)c(F)c3)C(=O)N2C1 |  | A (a compound having 10 or more and less than 20 is denoted as A)
8 | CCCOC[C@H]1C(=O)N[C@@H]([C@@H](C)CC)C(=O)N(C)CC(=O)N(C)[C@H]2C/C=C\CCN(C2=O)[C@@H](CC2CCC(F)(F)CC2)C(=O)N(C)CC(=O)N[C@@H](CCc2ccc(C(F)(F)F)c(OC)c2)C(=O)N2C[C@@H](C)C[C@H]2C(=O)N(C)C2(CCC2)C(=O)N(C)[C@@H](C2CCCC2)C(=O)N(C)[C@H](C(=O)N(C)C)CC(=O)N1C | A (a compound having 10 or more and less than 20 is denoted as A) | 
9 | CCO[C@@H]1C[C@H]2C(=O)NC3(CCC3)C(=O)N(C)[C@@H](C3CCCC3)C(=O)N(C)[C@H](C(=O)N(C)C)CC(=O)N(C)[C@@H](CC3CC3)C(=O)N[C@@H]([C@@H](C)CC)C(=O)N(C)CC(=O)N(C)[C@H]3C/C=C\CCN(C3=O)[C@@H](Cc3ccc(F)cc3)C(=O)N(C)CC(=O)N[C@@H](CCc3ccc4sccc4c3)C(=O)N2C1 |  | B (a compound having 3 or more and less than 10 is denoted as B)
10 | CCO[C@@H]1C[C@H]2C(=O)NC3(CCC3)C(=O)N(C)[C@@H](C3CCCC3)C(=O)N(C)[C@H](C(=O)N(C)C)CC(=O)N(C)[C@@H](CCOC)C(=O)N[C@@H]([C@@H](C)CC)C(=O)N(C)CC(=O)N(C)[C@H]3CCCCCN(C3=O)[C@@H](Cc3ccc(F)cc3)C(=O)N(C)CC(=O)N[C@@H](CCc3cc(F)c(C(F)(F)F)c(F)c3)C(=O)N2C1 |  | B (a compound having 3 or more and less than 10 is denoted as B)
11 | CCO[C@@H]1C[C@H]2C(=O)NC3(CCC3)C(=O)N(C)[C@@H](C3CCCC3)C(=O)N(C)[C@H](C(=O)N3CCCC3)CC(=O)N(C)[C@@H](C)C(=O)N[C@@H]([C@@H](C)CC)C(=O)N(C)CC(=O)N(C)[C@H]3C/C=C\CCN(C3=O)[C@@H](Cc3ccc(C(F)(F)F)cc3)C(=O)N(C)CC(=O)N[C@@H](CCc3cc(F)c(C(F)(F)F)c(F)c3)C(=O)N2C1 |  | A (a compound having 10 or more and less than 20 is denoted as A)
12 | CCCOCC1C(=O)NC(C(C)CC)C(=O)N(C)CC(=O)N(C)C2CC=CCCN(C2=O)C(Cc2ccc(C)cc2)C(=O)N(C)CC(=O)NC(CCc2ccc(C(F)(F)F)c(Cl)c2)C(=O)N2CC(OCC)CC2C(=O)NC2(CC(C)(C)C2)C(=O)N(C)C(C2CCCC2)C(=O)N(C)C(C(=O)N(C)CC)CC(=O)N1C (stereo not shown) | B (a compound having 3 or more and less than 10 is denoted as B) | 
13 | CCO[C@@H]1C[C@H]2C(=O)NC3(CCC3)C(=O)N(C)[C@@H](C3CCCC3)C(=O)N(C)[C@H](C(=O)N3CCCC3)CC(=O)N(C)[C@@H](CC3CC3)C(=O)N[C@@H]([C@@H](C)CC)C(=O)N(C)CC(=O)N(C)[C@H]3C/C=C\CCN(C3=O)[C@@H](Cc3ccc(C)cc3)C(=O)N(C)CC(=O)N[C@@H](CCc3cc(F)c(C(F)(F)F)c(F)c3)C(=O)N2C1 |  | A (a compound having 10 or more and less than 20 is denoted as A)
14 | CCCO[C@H](C)[C@@H]1NC(=O)[C@H](CC(C)C)N(C)C(=O)C[C@@H](C(=O)N(C)CC)N(C)C(=O)[C@H](C2CCCC2)N(C)C(=O)C2(CC(C)(C)C2)NC(=O)[C@@H]2C[C@H](C)CN2C(=O)[C@H](CCc2cc(F)c(C(F)(F)F)c(F)c2)NC(=O)CN(C)C(=O)[C@H](Cc2ccc(C)cc2)N2CC/C=C\C[C@@H](C2=O)N(C)C(=O)CN(C)C1=O | A (a compound having 10 or more and less than 20 is denoted as A) | 
15 | CCO[C@@H]1C[C@H]2C(=O)NC3(CCCC3)C(=O)N(C)[C@@H](C(CC)CC)C(=O)N(C)[C@H](C(=O)N3CCCC3)CC(=O)N(C)[C@@H](COC)C(=O)N[C@@H]([C@@H](C)CC)C(=O)N(C)CC(=O)N(C)[C@H]3C/C=C\CCN(C3=O)[C@@H](CC3CCCCC3)C(=O)N(C)CC(=O)N[C@@H](CCc3cc(F)c(C(F)(F)F)c(F)c3)C(=O)N2C1 |  | A (a compound having 10 or more and less than 20 is denoted as A)
16 | CCO[C@@H]1C[C@H]2C(=O)NC3(CC(C)(C)C3)C(=O)N(C)[C@@H](C3CCCC3)C(=O)N(C)[C@H](C(=O)N(C)C)CC(=O)N(C)[C@@H](CC)C(=O)N[C@@H]([C@@H](C)CC)C(=O)N(C)CC(=O)N(C)[C@H]3C/C=C\CCN(C3=O)[C@@H](Cc3ccc(C(F)(F)F)cc3)C(=O)N(C)CC(=O)N[C@@H](CCc3cc(F)c(C(F)(F)F)c(F)c3)C(=O)N2C1 |  | A (a compound having 10 or more and less than 20 is denoted as A)
17 | CCO[C@@H]1C[C@H]2C(=O)NC3(CCCC3)C(=O)N(C)[C@@H](C3CCCC3)C(=O)N(C)[C@H](C(=O)N(C)C)CC(=O)N(C)[C@@H](C)C(=O)N[C@@H]([C@@H](C)CC)C(=O)N(C)CC(=O)N(C)[C@H]3C/C=C\CCN(C3=O)[C@@H](CC3CCCCC3)C(=O)N(C)CC(=O)N[C@@H](CCc3cc(F)c(C(F)(F)F)c(F)c3)C(=O)N2C1 |  | A (a compound having 10 or more and less than 20 is denoted as A)
18 | CC[C@H](C)[C@@H]1NC(=O)[C@H](CC)N(C)C(=O)C[C@@H](C(=O)N(C)C)N(C)C(=O)[C@H](C2CCCC2)N(C)C(=O)C2(CCCC2)NC(=O)[C@@H]2CCCN2C(=O)[C@H](CCc2ccc(C(F)(F)F)c(Cl)c2)NC(=O)CN(C)C(=O)[C@H](Cc2ccc(C(F)(F)F)cc2)N2C[C@H](C)CC[C@@H](C2=O)N(C)C(=O)CN(C)C1=O |  | B (a compound having 3 or more and less than 10 is denoted as B)
19 | CC[C@H](C)[C@@H]1NC(=O)[C@H](CC)N(C)C(=O)C[C@@H](C(=O)N(C)C)N(C)C(=O)[C@H](C2CCCC2)N(C)C(=O)C2(CCC2)NC(=O)[C@@H]2CC(F)(F)CN2C(=O)[C@H](CCc2cc(F)c(C(F)(F)F)c(F)c2)NC(=O)CN(C)C(=O)[C@H](CC2CCC(F)(F)CC2)N2CC/C=C\C[C@@H](C2=O)N(C)C(=O)CN(C)C1=O |  | A (a compound having 10 or more and less than 20 is denoted as A)
20 | CCOC1CC2C(=O)NC3(CCC3)C(=O)N(C)C(C3CCCC3)C(=O)N(C)C(C(=O)N3CCOCC3)CC(=O)N(C)C(Cc3ccccc3)C(=O)NC(C(C)CC)C(=O)N(C)CC(=O)N(C)C3CCCCCN(C3=O)C(Cc3ccc(F)cc3)C(=O)N(C)CC(=O)NC(CCc3cc(F)c(C(F)(F)F)c(F)c3)C(=O)N2C1 (stereo not shown) |  | B (a compound having 3 or more and less than 10 is denoted as B)
21 | CCO[C@@H]1C[C@H]2C(=O)NC3(CCC3)C(=O)N(C)[C@@H](C3CCCC3)C(=O)N(C)[C@H](C(=O)N(C)C)CC(=O)N(C)[C@@H](CC)C(=O)N[C@@H]([C@@H](C)CC)C(=O)N(C)CC(=O)N(C)[C@H]3C/C=C\CCN(C3=O)[C@@H](CC3CCC(F)(F)CC3)C(=O)N(C)CC(=O)N[C@@H](CCc3cc(F)c(C(F)(F)F)c(F)c3)C(=O)N2C1 |  | A (a compound having 10 or more and less than 20 is denoted as A)
22 | CCO[C@@H]1C[C@H]2C(=O)NC3(CCC3)C(=O)N(C)[C@@H](C3CCCC3)C(=O)N(C)[C@H](C(=O)N3CCOCC3)CC(=O)N(C)[C@@H](CC(C)C)C(=O)N[C@@H]([C@@H](C)CC)C(=O)N(C)CC(=O)N(C)[C@H]3C/C=C\CCN(C3=O)[C@@H](Cc3ccc(C)cc3)C(=O)N(C)CC(=O)N[C@@H](CCc3cc(F)c(C(F)(F)F)c(F)c3)C(=O)N2C1 |  | A (a compound having 10 or more and less than 20 is denoted as A)
